This note sets out measurements from ChEMBL document CHEMBL3232801, “Oxidative stress in Alzheimer's disease: are we connecting the dots?” (J Med Chem, 2014).

Amino acid sequences for entries named in this document (tags omitted). A change or cut given only in a name is not applied to a line headed by its entry.
UniProt P22303: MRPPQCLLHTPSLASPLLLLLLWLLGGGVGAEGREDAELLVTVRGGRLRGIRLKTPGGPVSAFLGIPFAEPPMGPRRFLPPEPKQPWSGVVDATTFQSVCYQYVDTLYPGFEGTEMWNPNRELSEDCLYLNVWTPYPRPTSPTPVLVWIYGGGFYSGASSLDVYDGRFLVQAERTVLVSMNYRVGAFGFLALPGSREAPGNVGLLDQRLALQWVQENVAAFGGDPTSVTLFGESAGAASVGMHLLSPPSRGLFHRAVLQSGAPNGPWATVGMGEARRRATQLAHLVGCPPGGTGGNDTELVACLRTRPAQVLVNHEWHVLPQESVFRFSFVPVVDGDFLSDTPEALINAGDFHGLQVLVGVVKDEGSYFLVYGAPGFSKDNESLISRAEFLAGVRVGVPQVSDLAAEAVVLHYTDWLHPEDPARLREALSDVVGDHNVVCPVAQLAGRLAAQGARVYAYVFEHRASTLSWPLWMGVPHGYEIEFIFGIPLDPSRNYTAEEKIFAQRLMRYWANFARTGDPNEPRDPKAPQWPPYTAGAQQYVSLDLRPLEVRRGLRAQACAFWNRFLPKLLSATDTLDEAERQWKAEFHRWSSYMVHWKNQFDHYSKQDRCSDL

This test concerns the target Acetylcholinesterase (Homo sapiens, UniProt P22303). The test is described as follows: Inhibition of AChE (unknown origin)-mediated amyloid beta aggregation at 100 uM.

For `COc1cc(/C=C/C(=O)NCCCCCCNc2c3c(nc4ccccc24)CCCC3)ccc1O`, the inhibition was 50.3%.

A word on the inhibition: it is the change of the read-out against control, counted positive when it falls. Read a low inhibition as a weak effect.
